Where a name gives a salt, the structure may show the parent alone.
Assay: Dissolution measurements, μ-DISS Profiler, micronized material
Format: physicochemical
Procedure: In general, 0.5 mg of the micronized material was added to the stirred dissolution media (20 mL 0.1 M acetate buffer, pH 4.5, 200 rpm, at 37° C.). The dissolution profiles were generated by measuring the UV absorbance at 280 nm wavelength. The material of interest was evaluated in triplicate.
The particle size of the materials was reduced by micronisation, as follows, using a 2″ Spiral Jet Mill or a 1″ MCOne fluid Jet Mill followed by subsequent particle size distribution (PSD) measurements.
Test substance was fed into the jet mill chamber, via a venturi feed system, by a vibratory feeder. Micronisation was achieved by particle collisions brought about by compressed gas (nitrogen) forced through angled nozzles in the jet mill chamber. Particles of different sizes develop different speeds and momentum and as the particle size is reduced the particles spiral towards the centre of the jet mill and exit via an exhaust into a collection bin. The process parameters that control the particle size, in addition to the inherent properties of the compound to be micronised, are the feed rate, grinding pressure and venturi pressure and these are summarised in Table 2 below.

## Cc1cnc(Nc2cc(C)c(C)c(C)c2)nc1Nc1ccc2oc(=O)[nH]c2c1 [hemi-fumarate salt, 5-((5-methyl-2-((3,4,5-trimethylphenyl)-amino)pyrimidin-4-yl)amino)benzo[d]oxazol-2(3H)-one hemi-fumarate Salt]
0.1 M acetate buffer pH 4.5, 37° C., micronized material
  dissolution rate compared to free base: enhanced dissolution rate
Balance of solubility and kinetics of salt dissociation compared to the free base
  dissolution profile (suitability): suitable dissolution profile
General statement, compared to Compound (I) free base
  intrinsic dissolution rate: good intrinsic dissolution rate
